This note sets out measurements from ChEMBL document CHEMBL4725490, “Decreasing HepG2 Cytotoxicity by Lowering the Lipophilicity of Benzo[d]oxazolephosphinate Ester Utrophin Modulators” (ACS Med Chem Lett, 2020).

A short description of the test: Modulation of human utrophinA expressed in mouse H2K-mdx utrnA-luc cells assessed as upregulation of utrophin production after 24 hrs by luciferase reporter gene assay. In general terms: In a reporter assay the amount or activity of a reporter protein is the signal.

As a reminder, the EC50 is the concentration that produces a half-maximal response. With `CCP(=O)(OC)c1ccc2oc(-c3ccc(F)cc3)nc2c1` (stereo unspecified), the EC50 stood at 244 nM.
